scFv variants of Ab-14 (light chain) against a SARS-CoV-2 spike peptide

Values reported by Engelhart et al. 2022, doi:10.1038/s41597-022-01779-4 (FLAb copy).

The target is the same throughout: PDVDLGDISGINAS, from the HR2 region of SARS-CoV-2 spike.

Parent scFv Ab-14: VH joined to VL by a 15-residue (Gly4Ser)3 linker. Changes lie in the light chain CDRs alone.
VH: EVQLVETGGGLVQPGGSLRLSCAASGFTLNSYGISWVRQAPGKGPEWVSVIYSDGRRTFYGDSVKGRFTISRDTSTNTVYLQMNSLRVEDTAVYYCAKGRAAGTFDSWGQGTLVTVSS
VL: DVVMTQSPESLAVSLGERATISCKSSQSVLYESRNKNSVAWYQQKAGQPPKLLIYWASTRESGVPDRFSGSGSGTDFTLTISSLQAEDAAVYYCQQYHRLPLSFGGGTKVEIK

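Variants in AAYL50 differ from the parent at up to three CDR positions; double and triple changes were sampled at random. AlphaSeq pools MATa yeast showing the antibodies with MATalpha yeast showing the peptide. Pairs that bind mate more often; barcode pairs of the diploids are counted by sequencing. Each replicate has its own calibration line, from reference interactions of the BCL2 family. Each pool was mated in three replicate cultures.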

Variants are written as CDR1, CDR2 and CDR3 of the light chain (limits as in the source). Parent: KSSQSVLYESRNKNSVA, WASTRES, QQYHRLPLS.
Numbers give log10(Kd / nM), so 0 is 1 nM and 3 is 1 µM. Smaller is tighter.
An entry "nd" has no value in the source: the pair was not observed among the diploids in that replicate. This suggests poor binding but is not conclusive.
For reference, the parent read 0.65 as the reference entry and 1.68 as a member of this library.
Empty control strains, which show no peptide, gave a signal in 18% of pairings with library AAYL50; the median was 4.19 and 95% of these signals were weaker than 2.99. No background was subtracted. The control count says in how many pairings with the empty strains this scFv gave a signal.

nd, 4.33, nd (controls 1 of 9): KSSQSVLYESRNKVSVA, WASAREN, QQYHRLPLS.
1.90, 1.90, 1.88 (controls 1 of 9): KSSQSVLNESRNKNSVA, WASTCAS, QQYHRLPLS.
0.94, 1.05, 1.04 (controls 5 of 9): KSSQLVLYESRNKNSVA, WASTRES, QAHHRLPLS.
nd, nd, nd (controls 0 of 9): KSSRSVLYESRNKNSVA, WFSIRES, QQYHRLPLS.
4.71, nd, 5.81 (controls 4 of 9): PSSQSVAYESRNKNSVQ, WASTRES, QQYHRLPLS.
nd, nd, nd (controls 0 of 9): KSSQSVLYEFRNKNSVA, WASTRES, QQYHMIPLS.
4.07, nd, nd (controls 3 of 9): KSSQSVLYRSRPKNSVA, WAWTRES, QQYHRLPLS.
nd, nd, nd (controls 0 of 9): KSSFSVLYESRNKNSVA, WASFRES, QQYHRHPLS.
nd, nd, nd (controls 0 of 9): KSSQSVLYESRNKNSVI, WASTRES, QQYHRTPKS.
nd, nd, nd (controls 0 of 9): KSSQSVLYESRNKNSVA, WKSTRIS, QQYHRLPLP.
nd, nd, nd (controls 0 of 9): KSSQSVLYESRNKNSVQ, WASTRES, QRLHRLPLS.
nd, nd, nd (controls 3 of 9): KSSQSVLYEPRNKNSVA, WASTRES, QQYHRLVLR.
nd, 2.91, nd (controls 0 of 9): KSSISVLYECRNKNSVA, WASTRES, QQYHRLDLS.
1.24, 1.43, 1.37 (controls 3 of 9): NSSQSVLYESRNKNSVA, WASTRMS, QQYHRLPLS.
nd, nd, nd (controls 0 of 9): KSSQSVLYESLNFNSVA, WASTWES, QQYHRLPLS.
nd, nd, nd (controls 0 of 9): KSSQSHLWESRNKNSVA, WASTREA, QQYHRLPLS.
2.21, 2.23, 2.34 (controls 1 of 9): KSSQSVKYESRTKNSVA, WASTRES, QQYHRLPLS.
nd, nd, nd (controls 1 of 9): KSSQSVLYESRNKNSVA, WASTAES, QQYHGLYLS.
nd, nd, nd (controls 1 of 9): KSMQSVLYESRNKNSVA, WASTRQS, QCYHRLPLS.
3.27, 3.39, 3.60 (controls 0 of 9): KSSQSVLYEAANKNSCA, WASTRES, QQYHRLPLS.
1.70, 2.82, 2.19 (controls 1 of 9): KSSQSVLYERRNKNSVA, WASTRES, KQYHRLHLS.
nd, nd, nd (controls 1 of 9): KSSQSVLYESRNKNSLA, WASTREN, QQWHRLPLS.
1.18, 1.29, 1.21 (controls 4 of 9): KSSQSVLYESRAKNSVA, WASTRYS, QQYKRLPLS.
3.82, 4.16, 4.48 (controls 6 of 9): KSSQSVLYELRNKNSVA, WPSTRES, FQYHRLPLS.
nd, 4.12, nd (controls 0 of 9): KNSQSVLYESRNKNSVA, WASTRGS, FQYHRLPLS.
2.35, 2.24, 2.25 (controls 2 of 9): KSSQSVLYESRNKNSVA, WASFRES, QQYHRGPLS.
2.75, 2.93, 2.66 (controls 2 of 9): KSSQSVLYESRRKNSVA, MASTRES, QQSHRLPLS.
nd, nd, nd (controls 1 of 9): DSSQSVLYESRNKNKVA, WASTRES, QQYHRLPMS.
nd, nd, 4.22 (controls 1 of 9): KSSQSVLTESLNKNSVA, WPSTRES, QQYHRLPLS.
1.75, 2.65, 2.04 (controls 3 of 9): KSSGSVLYESRNKNSVA, WASTRES, QQYHYSPLS.
3.50, 4.22, nd (controls 3 of 9): KSSQSVLYESFNKNSFA, WASPRES, QQYHRLPLS.
nd, 2.74, nd (controls 4 of 9): KSNQSVLYESRNKNMVA, WASTREQ, QQYHRLPLS.
2.72, 2.44, 3.38 (controls 3 of 9): KSSDSVLYESRNSNSCA, WASTRES, QQYHRLPLS.
2.28, 2.83, 2.50 (controls 6 of 9): KSSQSVLYNSRNKNSVA, WASTRAS, QQYHVLPLS.
0.41, 1.14, 0.88 (controls 0 of 9): KYSQSVLYENRNFNSVA, WASTRES, QQYHRLPLS.
2.43, nd, nd (controls 0 of 9): KSSQSVLSESRNKNSVG, MASTRES, QQYHRLPLS.

Again, the first 3 entries without any signal:

CDR-L1	CDR-L2	CDR-L3	replicates, log10 nM	control signals
KSSRSVLYESRNKNSVA	WFSIRES	QQYHRLPLS	nd, nd, nd	0/9
KSSQSVLYEFRNKNSVA	WASTRES	QQYHMIPLS	nd, nd, nd	0/9
KSSFSVLYESRNKNSVA	WASFRES	QQYHRHPLS	nd, nd, nd	0/9